Test results taken from article PMC10177692, “Novel topoisomerase II/EGFR dual inhibitors: design, synthesis and docking studies of naphtho[2′,3′:4,5]thiazolo[3,2-a]pyrimidine hybrids as potential anticancer agents with apoptosis inducing activity” (Journal of Enzyme Inhibition and Medicinal Chemistry, 2023).

Chains of the proteins cited; added tags and fusions are not shown. Lines headed by an entry give the natural chain unless they say otherwise; changes in a name come on top.
UniProt P11388: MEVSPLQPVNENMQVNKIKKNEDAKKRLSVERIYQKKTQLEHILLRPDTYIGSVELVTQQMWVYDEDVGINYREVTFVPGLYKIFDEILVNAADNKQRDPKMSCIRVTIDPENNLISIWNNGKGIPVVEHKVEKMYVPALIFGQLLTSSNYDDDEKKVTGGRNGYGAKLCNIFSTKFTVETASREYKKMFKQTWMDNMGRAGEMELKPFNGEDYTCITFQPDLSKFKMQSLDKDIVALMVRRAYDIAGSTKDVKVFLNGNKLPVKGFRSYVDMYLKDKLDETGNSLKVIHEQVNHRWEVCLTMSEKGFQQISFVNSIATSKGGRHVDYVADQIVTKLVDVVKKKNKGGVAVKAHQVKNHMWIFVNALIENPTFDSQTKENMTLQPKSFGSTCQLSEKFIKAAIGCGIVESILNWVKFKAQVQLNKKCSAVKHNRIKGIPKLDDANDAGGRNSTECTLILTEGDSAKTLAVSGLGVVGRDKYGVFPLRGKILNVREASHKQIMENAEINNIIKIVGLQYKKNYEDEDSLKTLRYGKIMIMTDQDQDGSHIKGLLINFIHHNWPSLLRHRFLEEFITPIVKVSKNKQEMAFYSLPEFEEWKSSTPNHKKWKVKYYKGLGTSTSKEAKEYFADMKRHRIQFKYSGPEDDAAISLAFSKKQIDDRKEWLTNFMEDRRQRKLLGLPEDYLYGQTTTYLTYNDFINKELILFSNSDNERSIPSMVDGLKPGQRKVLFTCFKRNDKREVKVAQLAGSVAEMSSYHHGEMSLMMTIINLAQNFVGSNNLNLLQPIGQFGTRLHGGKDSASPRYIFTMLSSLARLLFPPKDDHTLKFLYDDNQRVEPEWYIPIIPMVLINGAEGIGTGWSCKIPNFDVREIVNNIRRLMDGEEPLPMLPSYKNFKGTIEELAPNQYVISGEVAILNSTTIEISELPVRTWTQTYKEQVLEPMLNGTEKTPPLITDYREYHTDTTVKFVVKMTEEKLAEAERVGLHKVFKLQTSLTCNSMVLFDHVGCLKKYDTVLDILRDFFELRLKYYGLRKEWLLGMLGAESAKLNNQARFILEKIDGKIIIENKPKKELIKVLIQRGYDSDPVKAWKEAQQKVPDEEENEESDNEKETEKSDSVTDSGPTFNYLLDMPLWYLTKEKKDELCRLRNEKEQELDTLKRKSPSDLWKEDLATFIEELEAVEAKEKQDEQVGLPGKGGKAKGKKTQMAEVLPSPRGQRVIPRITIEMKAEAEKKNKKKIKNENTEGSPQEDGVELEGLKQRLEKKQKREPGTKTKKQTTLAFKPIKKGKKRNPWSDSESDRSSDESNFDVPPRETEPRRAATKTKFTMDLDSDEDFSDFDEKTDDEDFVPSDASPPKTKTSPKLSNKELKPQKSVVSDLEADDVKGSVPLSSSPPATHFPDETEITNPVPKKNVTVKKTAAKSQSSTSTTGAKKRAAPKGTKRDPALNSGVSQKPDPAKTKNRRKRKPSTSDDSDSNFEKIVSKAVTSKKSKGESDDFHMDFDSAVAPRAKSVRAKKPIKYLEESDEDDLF

Target: T1, topoisomerase II (Homo sapiens, UniProt P11388)
T1 construct: purchased Topogen, USA
Assay: DNA topo II inhibition assay (kDNA, agarose gel)
Assay type: biochemical
Settings: 10 µM, with topo II
Description: Using the procedure outlined in topoisomerase II Drug Screening Kit (Topogen, USA), the effect of 6a, 6c and 6i on topoisomerase II inhibition and the effectiveness of catenated/decatenated kDNA formation were examined. The reaction mixture includes 10 mM MgCl2, 50 mM Tris-HCl, 0.5 mM dithiothreitol, […]/ml bovine serum albumin, 200–300 ng of kDNA and topoisomerase II. Test compounds were added to reaction mixture and etoposide used as reference standard. After the reaction samples were incubated for 30 min at 37 °C, the reaction was stopped by adding […] of a stop buffer containing 10% (w/v) SDS and […] of 0.5 mg/ml proteinase followed by incubating the mixture for 10 min at 37 °C. The reaction mixture was separated by 1% agarose gel and examined after being stained with ethidium bromide.

linear DNA formation from catenated kDNA: a linear DNA formation was seen
Structure (SMILES): COc1cc([C@@H]2c3cc4c(cc3[C@@H](O[C@@H]3O[C@@H]5CO[C@@H](C)O[C@H]5[C@H](O)[C@H]3O)[C@H]3COC(=O)[C@H]23)OCO4)cc(OC)c1O [etoposide, reference compound]
